According to patent US20040058876A1, “Secondary binding site of dipeptidyl peptidase IV (DP IV)” (priority 2002, published 2004):

Assay: Determination of the half-life (t1/2) of DP IV-catalyzed peptide truncation by MALDI-TOF MS
Procedure: The degradation fate of peptides was measured by monitoring the signal intensity of the pseudomolecular ion peaks of parent peptides and N-terminal shorted peptides versus time when incubated with 40 mU procine DP IV, recombinant human DP IV or serum DP IV activity. […] As control served the preincubation of DP IV with 0.01M Tris-buffer (Sigma-Aldrich, Deisenhofen, Germany). The mass spectrometer employed was a Hewlett-Packard G2025 model with a linear time of flight analyzer; samples (4 μL) were mixed 1:1 v/v with matrix (44 mg diammonium-hydrogen-citrate and 30 mg 2′,6′-dihydroxyacetophenone in 1 ml aqueous solution containing 50% acetonitrile and 0.05% trifluoroacetic acid; Sigma-Aldrich), transferred to a probe tip and immediately evaporated using the Hewlett-Packard G2024A (Hewlett-Packard, Waldbronn, Germany) sample preparation vacuum chamber. 250 single laser-shot spectra were accumulated. […]
The height of the substrate peak was measured and set as 100% at time=0. During the reaction course the sum of substrate and product peak height were set as 100% and the percentage of the remaining substrate peak (also expressed as relative concentration) was determined. Diagrammed relative substrate concentration versus time t1/2 can be calculated based on first order exponential decay reaction course. […]

half-life: 2.68 min
SMILES: CC[C@H](C)[C@H](NC(=O)[C@H](CO)NC(=O)[C@H](Cc1ccc(O)cc1)NC(=O)[C@H](CC(=O)O)NC(=O)[C@H](CO)NC(=O)[C@@H](NC(=O)[C@H](Cc1ccccc1)NC(=O)[C@@H](NC(=O)CNC(=O)[C@H](CCC(=O)O)NC(=O)[C@H](C)NC(=O)[C@@H](N)Cc1ccc(O)cc1)[C@@H](C)O)[C@@H](C)CC)C(=O)N[C@@H](C)C(=O)N[C@@H](CCSC)C(=O)N[C@@H](CC(=O)O)C(=O)N[C@@H](CCCCN)C(=O)N[C@H](C(=O)N[C@@H](Cc1c[nH]cn1)C(=O)N[C@@H](CCC(N)=O)C(=O)N[C@@H](CCC(N)=O)C(=O)N[C@@H](CC(=O)O)C(=O)N[C@@H](Cc1ccccc1)C(=O)N[C@H](C(=O)N[C@@H](CC(N)=O)C(=O)N[C@@H](Cc1c[nH]c2ccccc12)C(=O)N[C@@H](CC(C)C)C(=O)N[C@@H](CC(C)C)C(=O)N[C@@H](C)C(=O)N[C@@H](CCC(N)=O)C(=O)N[C@@H](CCCCN)C(=O)O)C(C)C)[C@@H](C)CC [GIP1-30, reference compound]
